Biological target: T1, GPR54 G-Protein coupled receptor (Homo sapiens, UniProt Q969F8)
T1 construct: host or cells: Chem-1 host cells
Assay: FLIPR calcium flux agonist assay on GPR54
Type: cell-based
Details: for EC50 (nM): agonist activation at GPR54, no release incubation

Amino acid sequences for entries named in this document (tags omitted).
UniProt Q969F8, whole entry: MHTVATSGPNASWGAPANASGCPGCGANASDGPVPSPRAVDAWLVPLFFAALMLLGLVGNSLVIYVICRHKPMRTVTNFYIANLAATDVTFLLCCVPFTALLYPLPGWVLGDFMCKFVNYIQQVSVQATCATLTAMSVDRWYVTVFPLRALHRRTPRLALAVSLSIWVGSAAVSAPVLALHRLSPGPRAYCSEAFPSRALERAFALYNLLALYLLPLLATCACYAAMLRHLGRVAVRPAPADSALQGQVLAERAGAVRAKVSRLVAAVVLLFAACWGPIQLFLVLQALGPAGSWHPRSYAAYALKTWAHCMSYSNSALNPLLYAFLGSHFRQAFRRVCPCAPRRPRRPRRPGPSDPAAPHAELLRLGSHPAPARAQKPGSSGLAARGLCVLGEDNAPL

[1] = time of release 0 h (37° C., pH 7 before assay)

Substance: [mono]-[mPEG-ButyAldehyde30K]-[Kisspeptin-10] [Ald30K-KP10]
- EC50 (nM): No activity

Substance: mono-[mPEG2-CAC-FMOC-40K]-[Kisspeptin-10] [CAC-40K-KP10]
- Fold change compared to metastin (time of release 0 h): 155
- EC50 [1]: 1700 nM
- EC50 (time of release 0 h (37° C., pH 7 before assay), listed as CAC-40K Kisspeptin 10): 1600 nM
- Fold change compared to metastin (time of release 24 h): 9
- EC50 (time of release 24 h (37° C., pH 7 before assay)): 120 nM
- Fold change compared to metastin (time of release 48 h): 6
- EC50 (time of release 48 h (37° C., pH 7 before assay)): 74 nM
- Fold change compared to metastin (time of release 96 h): 4
- EC50 (time of release 96 h (37° C., pH 7 before assay)): 47 nM

Substance: [mono]-[mPEG-ButyAldehyde-10K]-[Kisspeptin-10] [Ald10K-KP10]
- EC50 (nM): No activity

Substance: mono-[mPEG-SBC-30K]-[Kisspeptin-10] [SBC-30K-KP10]
- Fold change compared to metastin (time of release 0 h): 23
- EC50 [1]: 280 nM
- Fold change compared to metastin (time of release 0 h, listed as SBC-30K Kisspeptin 10): about 23
- Fold change compared to metastin (time of release 2 h): ~17
- EC50 (time of release 2 h (37° C., pH 7 before assay)): 200 nM

— patent US20110166063A1 (priority 2008, published 2011)
